Data: EP4830726A1, “PHARMACEUTICAL COMPOSITION CONTAINING PRMT5 INHIBITOR AND KRAS G12C INHIBITOR” (dated 2026)

Tested on: LU99 MTAP (-/-) deleted cells
Assay: Test of compounds as single agents, CTG luminescence cell inhibition
Settings: single agent, 144 hours

- IC50: 1.7 nM
SMILES: C=CC(=O)N1CCN(c2nc(OC[C@@H]3CCCN3C)nc3c(F)c(-c4nc(N)cc(C)c4C(F)(F)F)c(Cl)cc23)[C@@H](C)C1
- IC20: 0.62 nM
- Max Inh% (maximum inhibition rate): 52.9%
